Here are results for one molecule from patent publication US11028051B2.

The test system of assay [1] is c-Myc expression in HDMB03 cells. Briefly: c-Myc expression inhibition, high content microscopy (HCM). The class given is cell-based, human. Conditions: read-out: c-Myc expression EC50.
A further assay concerns all ~42 bromodomains. Briefly: BROMOscan competitive binding experiment at a single concentration. To be noted: 1 μM, FIG. 4.
The subject of the next assay is SEM cells. The assay is described as follows: anti-proliferative activity. Conditions: read-out: EC50 (μM) SEM; Table 5.

Take `Cc1sc2c(c1C)C(c1ccc(Cl)cc1)=N[C@@H](CC(=O)OC(C)(C)C)c1nnc(C)n1-2`: the EC50 in assay [1] came to 0.02 µM; with SEM cells, 0.03 µM. The “activity across bromodomain families” value in the assay on all ~42 bromodomains was “activity only versus the BET family”.
